Laboratory results published in PubChem BioAssay AID651955 (The Scripps Research Institute Molecular Screening Center, 2012).
The list shows a part of the results, in another mix than the full data. Activity calls are given as the source filed them. Rule as the data show it: active = activation above about 37%; inactive = the rest.

The chains behind the UniProt entries cited, without tags or fusion partners.
UniProt Q96RJ0, whole entry: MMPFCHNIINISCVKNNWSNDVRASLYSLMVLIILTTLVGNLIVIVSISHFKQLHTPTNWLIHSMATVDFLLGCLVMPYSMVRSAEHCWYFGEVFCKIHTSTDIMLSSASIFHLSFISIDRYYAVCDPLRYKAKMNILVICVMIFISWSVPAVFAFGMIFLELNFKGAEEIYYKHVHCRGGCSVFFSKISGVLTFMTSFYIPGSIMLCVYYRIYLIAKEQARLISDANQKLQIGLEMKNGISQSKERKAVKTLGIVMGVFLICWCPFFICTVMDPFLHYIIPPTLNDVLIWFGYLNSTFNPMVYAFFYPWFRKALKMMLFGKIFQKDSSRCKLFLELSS

The compounds below were run against Trace amine-associated receptor 1 (Homo sapiens) (UniProt Q96RJ0) (assay: TAAR1 activation by candidate antagonists – cell-based, fluorescence, counter-screen for TAAR1 antagonist project (AID 651955;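 also: CHO cells stably expressing TAAR1 with calcium dye readout; 0% = DMSO vehicle and 100% = full agonist response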)). Conditions: hTAAR1 cell line, agonist mode, at 3 µM, hits give high values.

SMILES | activation
CCCCn1nnnc1C(c1cc2ccccc2o1)N1CCC(n2c(=O)[nH]c3ccccc32)CC1 (stereo not drawn) | inactive: 13.2%
O=c1[nH]c2ccccc2n1C1CCN(C(c2ccccc2)c2nnnn2C2CCCCC2)CC1 (stereo not drawn) | inactive: 25.7%
COc1cccc(C(c2nnnn2C2CCCC2)N2CCC(n3c(=O)[nH]c4ccccc43)CC2)c1OC (stereo not drawn) | inactive: 33.9%
O=c1[nH]c2ccccc2n1C1CCN(C(c2ccnc3ccccc23)c2nnnn2C2CCCCC2)CC1 (stereo not drawn) | active: 46.5%
O=c1[nH]c2ccccc2n1C1CCN(C(c2ccccc2)c2nnnn2C2CCCC2)CC1 (stereo not drawn) | inactive: 16.5%
CCCCn1nnnc1C(c1ccccc1)N1CCC(n2c(=O)[nH]c3ccccc32)CC1 (stereo not drawn) | inactive: 14.4%
O=c1[nH]c2ccccc2n1C1CCN(C(c2cccs2)c2nnnn2C2CCCCC2)CC1 (stereo not drawn) | inactive: 35.7%
O=c1[nH]c2ccccc2n1C1CCN(C(c2cccs2)c2nnnn2C2CCCC2)CC1 (stereo not drawn) | active: 38.8%
